According to patent US10933062B2, “Analgesic therapeutic and method, 1-(3-4(((1 R,3S,5S)-adamantan-1-yl)(phenyl)methyl)propyl)-4-methylpiperazine and salts thereof” (ANAVEX LIFE SCIENCES CORP., priority 2016, dated 2021):

Tested on: patients with nociceptive or neuropathic pain
Test: Patient examples 1-5: oral AV1066, patient-reported pain control
Format: in vivo, human
Description: A patient or subject (the terms are used interchangeably) presents with a fractured collar bone arising from a bicycling accident. They are complaining of significant shoulder pain. The patient's pain is classified according to the
International Association for the Study of Pain as nociceptive. They are orally administered AV1066 5 mg/kg/day. They are examined at days 3, 7, 16, and 28. At each visit the patient is assessed for pain control compared with the previous visit. The patient reports the pain to be both tolerable and improved at each visit.
A patient presents with a second […]. They are complaining of significant pain. The patient's pain is classified according to the International Association for the Study of Pain as nociceptive. They are orally administered the phosphate salt of AV1066 10 mg/kg daily in two doses. They are examined at 12 hours, and daily thereafter for 4 days. At each visit the patient is assessed for pain control compared with the previous visit. The patient reports the pain to be both tolerable and improved at each visit.
A patient presents with a benign tumor mass compressing their left shoulder causing movement pain. The patient's pain is classified according to the International Association for the Study of Pain as nociceptive. […] At each visit the patient is assessed for pain control compared with the previous visit. […]

Substance | patient-reported pain control (Example 4, postherpetic neuralgia (neuropathic), oral 10 mg/kg daily on days of significant pain) | patient-reported pain control (Example 5, trigeminal neuralgia, oral 350 mg, one to three doses in 12 hours)
(+) 1-(3-4(((1R,3S,5S)-adamantan-1-yl)(phenyl)methyl)propyl)-4-methylpiperazine | pain reduced and the outbreaks lessened din severity and duration | –
(−) 1-(3-4(((1R,3S,5S)-adamantan-1-yl)(phenyl)methyl)propyl)-4-methylpiperazine | – | one or two doses significantly reduce the frequency and severity of pain
